## CycPeptMPDB entries from one study

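The data file gives no further conditions (lipid, pH, time, direction or concentration), and values from different papers need not be comparable. The list need not hold all peptides of the study. Peptides that the database sets to -10, its floor, are left out.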

PAMPA measures passive passage through an artificial lipid membrane. P is given in units of 10^-6 cm/s (from log10 values with two decimals); larger means faster passage.

- CCCN1CC(=O)N(C)[C@@H](CC(C)C)C(=O)N(C)[C@H](CC(C)C)C(=O)N2CCC[C@H]2C(=O)N[C@H](CC(C)C)C(=O)N[C@@H](Cc2ccccc2)C(=O)N2CCC[C@H]2C1=O: PAMPA 10 × 10^-6 cm/s
- CC(C)C[C@@H]1NC(=O)[C@@H](CC(C)C)N(C)C(=O)C[C@H](Cc2ccccc2)NC(=O)[C@H](Cc2ccccc2)NC(=O)CN(Cc2ccccc2)C(=O)[C@@H]2CCCN2C1=O: PAMPA 4.2 × 10^-6 cm/s
- CC(C)C[C@@H]1NC(=O)C[C@H](Cc2ccccc2)NC(=O)[C@H]2CCCN2C(=O)[C@H](Cc2ccccc2)NC(=O)[C@@H](CC(C)C)NC(=O)[C@H]2CCCN2C(=O)[C@@H](CC(C)C)NC1=O: PAMPA 1.1 × 10^-6 cm/s
- CC(C)C[C@@H]1NC(=O)C[C@H](Cc2ccccc2)NC(=O)[C@H]2CCCN2C(=O)[C@H](Cc2ccccc2)NC(=O)[C@@H](CC(C)C)NC(=O)[C@H]2CCCN2C(=O)[C@H](CC(C)C)N(C)C1=O: PAMPA 1.1 × 10^-6 cm/s
- CC(C)C[C@H]1NC(=O)[C@H]2CCCN2C(=O)CN(Cc2ccccc2)C(=O)[C@@H](CC(C)C)NC(=O)[C@@H](C)NC(=O)[C@H]2CCCN2C(=O)[C@H](Cc2ccccc2)NC1=O: PAMPA 0.83 × 10^-6 cm/s
- CC(C)C[C@H]1C(=O)N[C@@H](Cc2ccccc2)C(=O)N2CCC[C@@H]2C(=O)N(C)[C@@H](C)C(=O)N(C)[C@@H](CC(C)C)C(=O)N(Cc2ccccc2)CC(=O)N2CCC[C@@H]2C(=O)N1C: PAMPA 2.4 × 10^-6 cm/s
- CC(C)C[C@@H]1C(=O)N(C)[C@@H](CC(C)C)C(=O)N2CCC[C@H]2C(=O)N(C)[C@H](CC(C)C)C(=O)N[C@@H](Cc2ccccc2)C(=O)N[C@@H](C)C(=O)N1C: PAMPA 13 × 10^-6 cm/s
- CC(C)C[C@@H]1C(=O)N2CCC[C@@H]2C(=O)N(C)[C@H](CC(C)C)C(=O)N[C@@H](Cc2ccccc2)C(=O)N[C@H](C)C(=O)N(Cc2ccccc2)CC(=O)N1C: PAMPA 3.3 × 10^-6 cm/s
- CC(C)C[C@@H]1NC(=O)[C@@H](C)N(C)C(=O)[C@H]2CCCN2C(=O)[C@H](Cc2ccccc2)NC(=O)[C@@H](CC(C)C)NC(=O)[C@@H]2CCCN2C(=O)CN(Cc2ccccc2)C1=O: PAMPA 2.5 × 10^-6 cm/s
- CC(C)C[C@@H]1NC(=O)C[C@H](Cc2ccccc2)NC(=O)[C@H]2CCCN2C(=O)[C@H](Cc2ccccc2)NC(=O)[C@H](CC(C)C)N(C)C(=O)[C@@H]2CCCN2C(=O)[C@@H](CC(C)C)NC1=O: PAMPA 1.6 × 10^-6 cm/s
- CC(C)C[C@@H]1NC(=O)[C@H](CC(C)C)N(C)C(=O)[C@H](C)N(C)C(=O)[C@@H]2CCCN2C(=O)[C@H](Cc2ccccc2)NC(=O)[C@H](CC(C)C)N(C)C(=O)[C@@H]2CCCN2C1=O: PAMPA 6.9 × 10^-6 cm/s
- CCCN1CC(=O)N(C)[C@@H](CC(C)C)C(=O)N(C)[C@@H](CC(C)C)C(=O)N2CCC[C@H]2C(=O)N(Cc2ccccc2)CC(=O)N[C@@H](Cc2ccccc2)C(=O)N2CCC[C@@H]2C1=O: PAMPA 2.5 × 10^-6 cm/s
- CC(C)C[C@@H]1NC(=O)[C@@H](C)N(C)C(=O)[C@@H]2CCCN2C(=O)[C@H](Cc2ccccc2)NC(=O)[C@H](CC(C)C)N(C)C(=O)[C@H]2CCCN2C(=O)[C@H](CC(C)C)NC1=O: PAMPA 1.9 × 10^-6 cm/s
- CC(C)C[C@@H]1NC(=O)[C@@H]2CCCN2C(=O)C[C@H](Cc2ccccc2)NC(=O)[C@@H](CC(C)C)NC(=O)[C@@H](C)NC(=O)[C@H]2CCCN2C(=O)[C@H](Cc2ccccc2)NC1=O: PAMPA 0.1 × 10^-6 cm/s
- CC(C)C[C@H]1C(=O)N(Cc2ccccc2)CC(=O)N2CCC[C@@H]2C(=O)N(Cc2ccccc2)CC(=O)N[C@@H](Cc2ccccc2)C(=O)N2CCC[C@@H]2C(=O)N(C)[C@H](C)C(=O)N1C: PAMPA 1.3 × 10^-6 cm/s

A selection of 2 entries from above:

* CC(C)C[C@@H]1C(=O)N2CCC[C@@H]2C(=O)N(C)[C@H](CC(C)C)C(=O)N[C@@H](Cc2ccccc2)C(=O)N[C@H](C)C(=O)N(Cc2ccccc2)CC(=O)N1C: PAMPA 3.3 × 10^-6 cm/s
* CCCN1CC(=O)N(C)[C@@H](CC(C)C)C(=O)N(C)[C@@H](CC(C)C)C(=O)N2CCC[C@H]2C(=O)N(Cc2ccccc2)CC(=O)N[C@@H](Cc2ccccc2)C(=O)N2CCC[C@@H]2C1=O: PAMPA 2.5 × 10^-6 cm/s

Data: CycPeptMPDB; original report Townsend et al. 2020, doi:10.26434/chemrxiv.13335941.v1.